From paper PMC8946146, “A Series of PSMA-Targeted Near-Infrared Fluorescent Imaging Agents” (Biomolecules, 2022) come the findings set out here.

The subject of the data set is PSMA^+ PC3 PIP and PSMA^- PC3 flu tumors. The following applies: 1 nmol intravenously, 24 h post-injection.

As for `CC1(C)C(/C=C/C2=C(Oc3ccc(S(=O)(=O)O)cc3)C(=C/C=C3/N(CCCCS(=O)(=O)O)c4ccc(S(=O)(=O)O)cc4C3(C)C)/CCC2)=[N+](CCCCCC(=O)NCCCCC(NC(=O)CCCCCCC(=O)NCCCC[C@H](NC(=O)N[C@@H](CCC(=O)O)C(=O)O)C(=O)O)C(=O)O)c2ccc(S(=O)(=O)[O-])cc21` (stereo partly shown) [YC-27], the “PSMA+ PIP tumor uptake (fluorescence)” value is recorded as “comparable”.
